The test deals with T1, 3-hydroxy-3-methylglutaryl-coenzyme A reductase (Rattus norvegicus, UniProt P51639).
T1 sequence (P51639 whole entry): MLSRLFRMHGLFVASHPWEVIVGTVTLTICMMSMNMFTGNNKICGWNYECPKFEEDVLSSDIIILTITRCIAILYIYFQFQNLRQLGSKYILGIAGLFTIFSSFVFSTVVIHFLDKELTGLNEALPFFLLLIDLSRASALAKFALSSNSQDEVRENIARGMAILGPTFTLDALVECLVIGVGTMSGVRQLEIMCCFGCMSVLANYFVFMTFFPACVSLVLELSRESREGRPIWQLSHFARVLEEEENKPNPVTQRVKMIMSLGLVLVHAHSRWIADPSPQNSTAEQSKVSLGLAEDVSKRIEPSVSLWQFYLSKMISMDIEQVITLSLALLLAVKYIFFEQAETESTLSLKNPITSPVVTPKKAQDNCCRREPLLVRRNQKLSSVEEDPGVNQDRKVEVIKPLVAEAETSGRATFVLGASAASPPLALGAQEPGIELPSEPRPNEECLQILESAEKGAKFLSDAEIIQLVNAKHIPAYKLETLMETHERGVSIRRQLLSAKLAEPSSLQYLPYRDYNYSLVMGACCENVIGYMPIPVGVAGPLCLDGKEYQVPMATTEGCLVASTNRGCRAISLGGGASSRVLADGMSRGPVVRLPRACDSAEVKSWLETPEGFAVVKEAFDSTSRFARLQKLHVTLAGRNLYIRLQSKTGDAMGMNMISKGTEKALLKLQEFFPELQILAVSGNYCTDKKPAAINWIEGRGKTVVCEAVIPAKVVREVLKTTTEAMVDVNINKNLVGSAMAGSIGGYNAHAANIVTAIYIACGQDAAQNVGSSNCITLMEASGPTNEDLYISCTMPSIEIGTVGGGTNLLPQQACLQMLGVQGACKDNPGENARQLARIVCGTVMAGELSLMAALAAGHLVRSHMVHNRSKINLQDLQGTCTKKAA
In words: Ability to inhibit microsomal preparation of HMG-CoA reductase in rat liver.

In ChEMBL document CHEMBL1125752, “Relationship between tissue selectivity and lipophilicity for inhibitors of HMG-CoA reductase” (J Med Chem, 1991) one finds IC50 data, which are given here for 1 molecule.

With `CC(C)c1c(C(=O)Nc2ccccc2)c(-c2ccccc2)c(-c2ccc(F)cc2)n1CC[C@@H](O)C[C@@H](O)CC(=O)O`, the IC50 was 7.5 nM.

What is called IC50 is the midpoint of a concentration-inhibition curve. A higher IC50 goes with a need for much substance.
